Measurements from BindingDB's records for PubMed 9223568 (Yamanouchi Pharmaceutical, 1997).
Where “and” joins values, the source holds several entries; their conditions need not be identical. Equal entries are not always repeated.

Amino acid sequences for entries named in this document (tags omitted).
UniProt Q00788, whole entry: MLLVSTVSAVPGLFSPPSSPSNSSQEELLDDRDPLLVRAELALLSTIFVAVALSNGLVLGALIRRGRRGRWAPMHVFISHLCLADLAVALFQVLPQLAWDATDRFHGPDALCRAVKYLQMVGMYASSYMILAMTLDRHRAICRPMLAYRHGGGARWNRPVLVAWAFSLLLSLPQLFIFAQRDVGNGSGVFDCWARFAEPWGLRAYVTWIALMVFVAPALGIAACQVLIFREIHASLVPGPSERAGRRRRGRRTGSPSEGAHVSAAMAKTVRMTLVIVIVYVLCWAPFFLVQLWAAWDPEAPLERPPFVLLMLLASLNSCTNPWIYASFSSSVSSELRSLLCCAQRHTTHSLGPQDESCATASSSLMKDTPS

Molecular target: Vasopressin V2 receptor (Rattus norvegicus, UniProt Q00788)

Which Ki does the source give for `NC(=O)CC[C@@H]1NC(=O)[C@H](Cc2ccccc2)NC(=O)[C@H](Cc2ccc(O)cc2)NC(=O)[C@@H](N)CSSC[C@@H](C(=O)N2CCC[C@H]2C(=O)N[C@@H](CCCN=C(N)N)C(=O)NCC(N)=O)NC(=O)[C@H](CC(N)=O)NC1=O` [[3H]Argipressin tannate] here?
Its Ki is 3.23 nM and 0.46 nM.
